“And” between values parts separate entries of the source, which are not always exact repeats. Equal entries are not always repeated.
Target: Hrh3 protein (Rattus norvegicus, UniProt Q5PPG3)

Amino acid sequences for entries named in this document (tags omitted).
UniProt Q5PPG3, whole entry: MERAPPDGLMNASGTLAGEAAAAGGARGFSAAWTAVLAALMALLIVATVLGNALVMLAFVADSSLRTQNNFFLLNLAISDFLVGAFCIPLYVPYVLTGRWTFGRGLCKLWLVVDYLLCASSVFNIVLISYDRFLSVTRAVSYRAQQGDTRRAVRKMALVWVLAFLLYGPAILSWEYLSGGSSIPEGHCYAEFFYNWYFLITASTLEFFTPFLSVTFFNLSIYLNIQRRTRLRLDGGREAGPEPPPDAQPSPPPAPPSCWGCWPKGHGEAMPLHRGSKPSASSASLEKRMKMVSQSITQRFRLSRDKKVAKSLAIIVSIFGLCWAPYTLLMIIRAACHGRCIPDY

`NC(=NCc1ccc(Cl)cc1)SCCCc1cnc[nH]1` [VUF 9153] was tested, and the Ki was 0.48 nM and 0.6 nM.

— BindingDB's records for PubMed 7965746 (U. 109, 1994)
